PubChem BioAssay AID799 (SRMLSC, 2007)
Only a part is listed here, and it is no random draw. The source made the active and inactive calls.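 How the source made its calls: active means viability gain under doxorubicin at or above a set limit, the compound median plus 3 SD (cut at about 4.7% in these data); inactive means the rest.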

Experiment: protection of MRP-1-high cells against doxorubicin toxicity – H69AR cells, CellTiter-Glo, MRP-1 activator project, primary screen (AID 799);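 further: MRP-1 overexpressing cells given doxorubicin 25 µM after compound pretreatment; 18-22 h compound pretreatment then 72 h with doxorubicin before readout; 0% = doxorubicin-only wells and 100% = vehicle-treated cells without doxorubicin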
Settings: viability rescue, at 10 µM, active compounds read high

| SMILES | viability increase |
| --- | --- |
| CCOC(=O)c1ccc(NP(C)(=O)Oc2ccc(F)cc2)cc1 (centres undefined) | inactive: -3.34% |
| CP(=O)(Nc1ccccc1)Oc1ccc(F)cc1 (centres undefined) | inactive: -2.83% |
| CCN(CC)CCCOC(=O)C(O)(c1ccccc1)C1CCCCC1 (centres undefined) | inactive: -3.54% |
| CP(=O)(Nc1ccccc1F)Oc1ccccc1 (centres undefined) | inactive: -1.8% |
| CC(C)c1ccc(OP(C)(=O)Nc2ccc(SC(F)(F)F)cc2)cc1 (centres undefined) | inactive: -2.43% |
| O=C(OCCN1CCN(CCOCc2ccccc2)CC1)C(O)(c1ccccc1)c1ccccc1 | inactive: -2.09% |
| CCOP(C)(=S)SCC(=O)NC(C)(CC)C(=O)O (centres undefined) | inactive: -1.04% |
| Cc1ccccc1NP(C)(=O)Nc1ccccc1C | inactive: -0.53% |
| CP(=O)(Nc1ccc2c(c1)OCCO2)Oc1ccccc1 (centres undefined) | inactive: -4.21% |
| CN(C)CCOC(=O)C(O)(c1ccccc1)C1CCCCC1 (centres undefined) | inactive: -2.05% |
| COc1ccc(OP(C)(=O)Nc2cccc(Br)c2)cc1 (centres undefined) | inactive: -4.66% |
| CCOC(=O)c1ccc(NP(C)(=O)Oc2ccc(Cl)cc2)cc1 (centres undefined) | inactive: -1.9% |
| CP(=O)(OC12CC3CC(CC(C3)C1)C2)OC12CC3CC(CC(C3)C1)C2 | inactive: -4.83% |
| CP(=O)(Oc1ccccc1)N1CCOC1=O (centres undefined) | inactive: 0.35% |
| CCN(CC)CC(O)COC(=O)C(O)(c1ccccc1)C1CCCCC1 (centres undefined) | inactive: -1.06% |
| COc1ccc(OP(C)(=O)Nc2ccc(Br)cc2)cc1 (centres undefined) | inactive: -1.65% |
| CC(C)(C)c1ccc(OP(C)(=O)O)cc1 | inactive: -1.02% |
| CP(=O)(Nc1ccc(Cl)cc1)Oc1ccc(F)cc1 (centres undefined) | inactive: -3.35% |
| COc1ccc(OP(C)(=O)Nc2ccccn2)cc1 (centres undefined) | inactive: -0.78% |
| CN(C)CCOC(=O)C(O)(c1ccccc1)C1CCCC1 (centres undefined) | inactive: 0.47% |
| CP(=O)(Nc1ccccn1)Oc1ccccc1 (centres undefined) | inactive: 0.38% |
| COc1ccccc1OP(C)(=O)Nc1ccc(C)cc1C (centres undefined) | inactive: -3.09% |
| CCc1ccc(OP(C)(=O)O)cc1 | inactive: -2.41% |
| Cc1c(NP(C)(=O)Oc2ccc(C(C)C)cc2)c(=O)n(-c2ccccc2)n1C (centres undefined) | inactive: 0.26% |
| COc1ccccc1OP(C)(=O)Nc1ccc(C)c(C)c1 (centres undefined) | inactive: -1.14% |

| SMILES | viability increase |
| --- | --- |
| COc1ccc(OP(C)(=O)Nc2ccccc2Br)cc1 (centres undefined) | inactive: -1.41% |
| Cc1nc2ccc3ccccc3c2o1.O=[N+]([O-])c1cc([N+](=O)[O-])c(O)c([N+](=O)[O-])c1 | inactive: 1.01% |
| CC(C)(C)c1ccc(OP(C)(=O)Nc2ccc(SC(F)(F)F)cc2)cc1 (centres undefined) | inactive: -2.14% |
| COc1ccc(OP(C)(=O)Nc2cccc(F)c2)cc1 (centres undefined) | inactive: -0.94% |
| COc1ccccc1OP(C)(=O)Nc1ccc(C)cc1 (centres undefined) | inactive: -4.03% |
| Cc1ccc(NP(C)(=O)Oc2ccccc2)c(C)c1 (centres undefined) | inactive: -1.38% |
| CCOC(=O)c1ccc(NP(C)(=O)Oc2ccccc2)cc1 (centres undefined) | inactive: 0.72% |
| CP(=O)(NC(=O)Nc1ccccc1)Oc1ccccc1 (centres undefined) | inactive: -0.35% |
| Cc1cc(C)cc(OP(C)(=O)Nc2ccc(SC(F)(F)F)cc2)c1 (centres undefined) | inactive: -3.63% |
| Cc1cccc(C)c1OP(C)(=O)Nc1ccc(SC(F)(F)F)cc1 (centres undefined) | inactive: -4.79% |
| CP(=O)(Nc1ccccn1)Oc1ccc(Cl)cc1 (centres undefined) | inactive: -2.24% |
| CCOC(=O)c1ccc(NP(C)(=O)Oc2ccc(OC)cc2)cc1 (centres undefined) | inactive: -1.48% |
| CCOP(C)(=S)SCC(=O)NC(C)C(=O)O (centres undefined) | inactive: -1.5% |
| CP(=O)(Nc1ccccc1Br)Oc1ccccc1 (centres undefined) | inactive: -2.46% |
| CP(=S)(Nn1cnnc1)Oc1ccccc1 (centres undefined) | inactive: 0.06% |
| CP(=O)(Nc1ccc(SC(F)(F)F)cc1)Oc1ccccc1 (centres undefined) | inactive: -1.16% |
| COc1ccccc1OP(C)(=O)Nc1c(C)cccc1C (centres undefined) | inactive: -2.1% |
| CN1CCCCC1COC(=O)C1(O)c2ccccc2CCc2ccccc21 (centres undefined) | inactive: -2.12% |
| Cc1nc2ccc3ccccc3c2s1.O=[N+]([O-])c1cc([N+](=O)[O-])c(O)c([N+](=O)[O-])c1 | inactive: 3.07% |
| CCOC(=O)c1ccc(NP(C)(=O)Oc2cc(C)cc(C)c2)cc1 (centres undefined) | inactive: -3.3% |
| Cc1cc(C)cc(OP(C)(=O)Nc2ccc(C)cc2C)c1 (centres undefined) | inactive: -1.18% |
| Cc1ccc(C)c(NP(C)(=O)Oc2ccccc2)c1 (centres undefined) | inactive: -0.4% |
| Cc1cc(C)cc(OP(C)(=O)Nc2ccccn2)c1 (centres undefined) | inactive: -3.21% |
| CC1=NCCc2c1[nH]c1ccccc21.O=[N+]([O-])c1cc([N+](=O)[O-])c(O)c([N+](=O)[O-])c1 | inactive: -4.51% |
